Only a part is listed here, and it is no random draw. Only a part of the results of these assays is listed, not drawn at random. The source made the active and inactive calls. No cut-off for these calls is given here.

By UniProt entry, the sequences of proteins in these tests, tags left out.
UniProt Q92830, whole entry, looked up: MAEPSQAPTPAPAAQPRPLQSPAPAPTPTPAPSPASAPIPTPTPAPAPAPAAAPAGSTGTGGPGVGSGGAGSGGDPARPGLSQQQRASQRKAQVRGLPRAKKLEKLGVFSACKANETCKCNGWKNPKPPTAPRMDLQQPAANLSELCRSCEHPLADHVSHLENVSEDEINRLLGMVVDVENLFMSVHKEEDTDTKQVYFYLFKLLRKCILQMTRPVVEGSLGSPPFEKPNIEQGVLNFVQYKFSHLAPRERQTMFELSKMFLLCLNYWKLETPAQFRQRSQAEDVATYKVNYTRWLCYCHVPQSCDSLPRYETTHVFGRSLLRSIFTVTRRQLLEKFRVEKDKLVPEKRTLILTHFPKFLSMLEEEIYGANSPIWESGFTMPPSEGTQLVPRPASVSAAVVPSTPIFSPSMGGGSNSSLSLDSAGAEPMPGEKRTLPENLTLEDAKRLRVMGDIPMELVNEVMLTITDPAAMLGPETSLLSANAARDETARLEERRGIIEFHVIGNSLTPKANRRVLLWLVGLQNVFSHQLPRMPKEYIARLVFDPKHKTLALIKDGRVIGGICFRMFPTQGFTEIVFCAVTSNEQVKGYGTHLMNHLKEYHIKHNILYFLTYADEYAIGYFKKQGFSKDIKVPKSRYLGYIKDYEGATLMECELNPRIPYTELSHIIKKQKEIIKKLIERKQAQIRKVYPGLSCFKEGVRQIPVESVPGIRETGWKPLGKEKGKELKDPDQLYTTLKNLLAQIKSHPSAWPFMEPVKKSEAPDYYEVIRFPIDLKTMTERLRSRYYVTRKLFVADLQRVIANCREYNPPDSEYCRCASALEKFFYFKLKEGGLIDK

In the experiment the target is Histone acetyltransferase KAT2A (Homo sapiens) (UniProt Q92830). The experiment in a line: qHTS Assay for Inhibitors of GCN5L2. [Related pubchem assays (depositor defined):AID504398]. Format: functional. Background: In qHTS, concentration-response curves come from the screen itself.
On to `CC[n+]1c(/C=C/N(C)c2ccccc2)oc2ccc(Cl)cc21`, for which the Potency entry is “inactive”.

For the origin of these results see ChEMBL document CHEMBL1201862, “PubChem BioAssay data set” (2004).
